Data as given in patent USRE37793E1, “Method and composition for inhibiting bacteria” (Winthrop University Hospital, priority 1995, dated 2002).

Tests used:
bacteria = assay: Antibacterial potency (MIC) in general; type: cell-based; conditions: with few exceptions
rats = conditions: cited from earlier work
humans = conditions: cited from earlier work
[1] = test system: Swiss-Webster female mice; assay: Oral toxicity of BisBAL in mice; conditions: dose as BAL
[2] = test system: Swiss-Webster female mice; assay: Intraperitoneal toxicity in mice; conditions: dose as BAL

In the case of OCC(S)CS (centres unmarked), the MIC (bacteria) is given as 1000 to 10000 µM, the “Intramuscular LD50” value (rats) is given as 86.7 mg/kg and the “Threshold toxic intramuscular dose” value (humans) is given as “less than 5 mg/kg”. For the same compound, the “Oral LD50” value [1] was 333 mg/kg and the “IP LD50” value [2] was 60 mg/kg.
